From PubChem BioAssay AID2524 (Sanford-Burnham Center for Chemical Genomics, 2010) come the findings set out here.

By UniProt entry, the sequences of proteins in these tests, tags left out.
UniProt P09923, whole entry: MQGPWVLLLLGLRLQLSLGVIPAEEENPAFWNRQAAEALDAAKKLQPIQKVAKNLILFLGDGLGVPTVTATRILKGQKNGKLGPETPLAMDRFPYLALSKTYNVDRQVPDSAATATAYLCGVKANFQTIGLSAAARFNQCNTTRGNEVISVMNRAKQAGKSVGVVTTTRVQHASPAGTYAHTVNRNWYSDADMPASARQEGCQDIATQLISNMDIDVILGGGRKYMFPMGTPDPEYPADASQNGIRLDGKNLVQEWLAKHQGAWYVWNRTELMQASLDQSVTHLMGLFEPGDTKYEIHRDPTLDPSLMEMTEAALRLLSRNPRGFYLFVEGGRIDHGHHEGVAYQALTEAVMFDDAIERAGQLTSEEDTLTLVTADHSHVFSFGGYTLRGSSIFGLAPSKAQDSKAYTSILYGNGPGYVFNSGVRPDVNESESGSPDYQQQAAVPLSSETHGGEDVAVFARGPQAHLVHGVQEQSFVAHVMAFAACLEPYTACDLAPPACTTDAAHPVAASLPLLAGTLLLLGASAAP

The entries are a selection whose mix differs from that of the whole data set. Some salts and complexes are drawn in separate pieces, as the source files them; their charges need not balance. Active and inactive are the calls of the source.

The experiment addresses Intestinal-type alkaline phosphatase (Homo sapiens) (UniProt P09923). As to the kind of experiment: human IAP activators, primary screen, biochemical, luminescence, uHTS (AID 2524). The note with it: purified human IAP, CDP-Star luminescence, 30 min; at 10 µM; hits give high values; 1 = vehicle-only enzyme, 0 = enzyme-free background.
As for `CP(=O)(Nc1ccccc1F)Oc1ccccc1` (centres undefined), the activation factor was inactive: 0.839.

`CC(C)c1ccc(OP(C)(=O)Nc2ccc(SC(F)(F)F)cc2)cc1` (centres undefined): the activation factor is inactive: 1.15.

Take `COc1ccc2c(c1O)-c1c(O)c(OC)cc3c1[C@H](C2)[N+](C)(C)CC3.O=[N+]([O-])c1cc([N+](=O)[O-])c([O-])c([N+](=O)[O-])c1[O-]`: the activation factor is inactive: 0.844.

For `O=C(OC1CN2CCC1CC2)c1ccc([N+](=O)[O-])cc1` (centres undefined), the activation factor is inactive: 1.19.

Consider `O=C(OCCN1CCN(CCOCc2ccccc2)CC1)C(O)(c1ccccc1)c1ccccc1`, for which the activation factor is inactive: 1.08.

As to `CCOC(=O)c1ccc(NP(C)(=O)Oc2ccc(F)cc2)cc1` (centres undefined), the activation factor is inactive: 0.933.

With `COc1ccc(OP(C)(=O)Nc2ccc(SC(F)(F)F)cc2)cc1` (centres undefined), the activation factor was inactive: 1.04.

`CP(=O)(Nc1ccccc1)Oc1ccc(F)cc1` (centres undefined): the activation factor was inactive: 0.974.

In the case of `CCCCCOc1ccc(NP(C)(=O)Oc2ccc(Cl)cc2Cl)cc1` (centres undefined), the activation factor was inactive: 1.18.

With `O=[N+]([O-])c1cc([N+](=O)[O-])c(OC2CCCCC2O)c([N+](=O)[O-])c1` (centres undefined), the activation factor was inactive: 0.999.

Consider `CCN(CC)CCCOC(=O)C(O)(c1ccccc1)C1CCCCC1` (centres undefined), for which the activation factor was inactive: 1.

Consider `CN(C)CCOC(=O)C(O)(c1ccccc1)C1CCCCC1` (centres undefined), for which the activation factor was inactive: 1.

With `COc1ccc(NP(C)(=O)Oc2ccccc2OC)cc1` (centres undefined), the activation factor was inactive: 1.14.

On to `COc1ccc(OP(C)(=O)Nc2cccc(Br)c2)cc1` (centres undefined), for which the activation factor is inactive: 1.03.

On to `O=[N+]([O-])c1cc([N+](=O)[O-])c(NCC2CCS(=O)(=O)C2)c([N+](=O)[O-])c1` (centres undefined), for which the activation factor was inactive: 1.15.

Consider `CCOP(C)(=S)SCC(=O)NC(C)(CC)C(=O)O` (centres undefined), for which the activation factor is inactive: 0.962.

With `CP(=O)(Nc1ccc(SC(F)(F)F)cc1)Oc1ccc(F)cc1` (centres undefined), the activation factor is inactive: 0.982.

As for `Cc1ccccc1NP(C)(=O)Nc1ccccc1C`, the activation factor is inactive: 1.21.

`CP(=O)(Nc1ccc2c(c1)OCCO2)Oc1ccccc1` (centres undefined): the activation factor is inactive: 1.03.

Regarding `COc1ccccc1OP(C)(=O)Nc1c(C)n(C)n(-c2ccccc2)c1=O` (centres undefined), the activation factor is inactive: 0.974.

Take `O=C(OCCCN1CCCC1)C(O)(c1ccccc1)C1CCCCC1` (centres undefined): the activation factor was inactive: 0.941.

As to `CP(=O)(Oc1ccccc1)N1CCOC1=O` (centres undefined), the activation factor is inactive: 1.05.

As to `CCc1ccc(OP(C)(=O)Nc2cccnc2)cc1` (centres undefined), the activation factor is inactive: 1.02.

Turning to `CCN(CC)CC(O)COC(=O)C(O)(c1ccccc1)C1CCCCC1` (centres undefined), the activation factor was inactive: 0.829.

In the case of `COc1ccc(OP(C)(=O)Nc2ccc(Br)cc2)cc1` (centres undefined), the activation factor is active: 2.14.

With `CN(C)C(=O)c1c([N+](=O)[O-])cc([N+](=O)[O-])cc1[N+](=O)[O-]`, the activation factor was inactive: 1.02.

`CC(C)(C)c1ccc(OP(C)(=O)O)cc1`: the activation factor was inactive: 0.867.

On to `COc1ccccc1OP(C)(=O)Nc1ccccc1Br` (centres undefined), for which the activation factor is inactive: 0.958.

Turning to `CP(=O)(Nc1ccc(Cl)cc1)Oc1ccc(F)cc1` (centres undefined), the activation factor is inactive: 0.871.

As for `CCOC(=O)c1ccc(NP(C)(=O)Oc2ccc(Cl)cc2)cc1` (centres undefined), the activation factor was inactive: 0.998.

With `CP(=O)(OC12CC3CC(CC(C3)C1)C2)OC12CC3CC(CC(C3)C1)C2`, the activation factor is inactive: 1.16.

On to `Nc1ccc2c(ccc3cccnc32)n1.O=[N+]([O-])c1cc([N+](=O)[O-])c(O)c([N+](=O)[O-])c1`, for which the activation factor is inactive: 0.871.

In the case of `COc1ccccc1OP(C)(=O)Nc1ccc(C)c(C)c1` (centres undefined), the activation factor is inactive: 1.

Take `COc1ccc(OP(C)(=O)Nc2ccccc2Br)cc1` (centres undefined): the activation factor is inactive: 0.992.

In the case of `Cc1cc(C)cc(OP(C)(=O)Nc2cccc(C(F)(F)F)c2)c1` (centres undefined), the activation factor is inactive: 0.947.

On to `CP(=O)(OCCOc1ccccc1)OCCOc1ccccc1`, for which the activation factor was inactive: 0.891.

On to `CP(=O)(Nc1ccc(Cl)cc1Cl)Oc1ccccc1` (centres undefined), for which the activation factor was inactive: 1.

Take `Cc1nc2ccc3ccccc3c2o1.O=[N+]([O-])c1cc([N+](=O)[O-])c(O)c([N+](=O)[O-])c1`: the activation factor was inactive: 1.03.

For `COc1ccc(OP(C)(=O)Nc2ccccn2)cc1` (centres undefined), the activation factor is inactive: 0.853.

As for `CN(C)CCOC(=O)C(O)(c1ccccc1)C1CCCC1` (centres undefined), the activation factor is inactive: 1.22.

As for `COc1ccccc1OP(C)(=O)Nc1ccc(Br)cc1` (centres undefined), the activation factor was inactive: 1.05.

Regarding `CP(=O)(Nc1ccccn1)Oc1ccccc1` (centres undefined), the activation factor is inactive: 1.02.

In the case of `COc1ccccc1OP(C)(=O)Nc1ccc(C)cc1C` (centres undefined), the activation factor was inactive: 1.09.

Turning to `CCc1ccc(OP(C)(=O)O)cc1`, the activation factor was inactive: 1.05.

Take `O=[N+]([O-])c1cc([N+](=O)[O-])c(Nc2ccccn2)c([N+](=O)[O-])c1`: the activation factor is inactive: 0.701.

As to `Cc1c(NP(C)(=O)Oc2ccc(C(C)C)cc2)c(=O)n(-c2ccccc2)n1C` (centres undefined), the activation factor is inactive: 1.06.

For the compound `CCN(CC)CCCOC(=O)C(O)(c1ccccc1)c1ccccc1`, the activation factor was inactive: 1.03.

Regarding `CC(C)(C)c1ccc(OP(C)(=O)Nc2ccc(SC(F)(F)F)cc2)cc1` (centres undefined), the activation factor is inactive: 1.03.

Turning to `Cc1cccc(C)c1OP(C)(N)=O` (centres undefined), the activation factor is inactive: 1.05.

For `O=[N+]([O-])c1cc([N+](=O)[O-])c(Nc2cccnc2)c([N+](=O)[O-])c1`, the activation factor is inactive: 0.743.

As to `Cc1cc(C)cc(OP(C)(N)=O)c1` (centres undefined), the activation factor was inactive: 1.3.

For `COc1ccccc1OP(C)(=O)Nc1cc(Cl)ccc1C` (centres undefined), the activation factor was inactive: 1.09.

As for `COc1ccc(OP(C)(=O)Nc2cccc(F)c2)cc1` (centres undefined), the activation factor was inactive: 0.99.

On to `COc1ccccc1OP(C)(=O)Nc1ccc(C)cc1` (centres undefined), for which the activation factor is inactive: 1.01.

As for `Cc1ccc(NP(C)(=O)Oc2ccccc2)c(C)c1` (centres undefined), the activation factor was inactive: 0.962.

With `CCOC(=O)c1ccc(NP(C)(=O)Oc2ccccc2)cc1` (centres undefined), the activation factor is inactive: 0.951.

With `CP(=O)(Nc1ccccc1Br)Oc1ccccc1` (centres undefined), the activation factor was inactive: 0.912.

As for `COc1ccccc1OP(C)(=O)Nc1ccccc1` (centres undefined), the activation factor is inactive: 1.14.

For the compound `CP(=S)(Nn1cnnc1)Oc1ccccc1` (centres undefined), the activation factor is inactive: 0.899.

As to `CCc1ccc(OP(C)(=O)N2CCN(c3ccc([N+](=O)[O-])cc3)CC2)cc1` (centres undefined), the activation factor was inactive: 0.978.

As for `CP(=O)(NC(=O)Nc1ccccc1)Oc1ccccc1` (centres undefined), the activation factor is inactive: 1.11.

Take `Cc1cc(C)cc(OP(C)(=O)Nc2ccc(SC(F)(F)F)cc2)c1` (centres undefined): the activation factor was inactive: 0.854.

As for `CP(=O)(Nc1ccc(SC(F)(F)F)cc1)Oc1ccc(Cl)cc1` (centres undefined), the activation factor was inactive: 1.08.

Take `Cc1cccc(C)c1OP(C)(=O)Nc1ccc(SC(F)(F)F)cc1` (centres undefined): the activation factor was inactive: 0.947.
